# From ChEMBL document CHEMBL1127048, “A potent new class of kappa-receptor agonist: 4-substituted 1-(arylacetyl)-2-[(dialkylamino)methyl]piperazines” (J Med Chem, 1993)
# Test system: Mus musculus
# Assay: In vivo antinociceptive activity was determined using mouse acetylcholine induced abdominal constriction test following subcutaneous administration; range (0.23-0.70)
# Conditions: Abdomen
compound,measurement,value
CN(C(=O)Cc1ccc(Cl)c(Cl)c1)C1CCCCC1N1CCCC1 (stereo unspecified),ED50,0.41 mg/kg
